# Ab-14 light chain CDR variants: yeast mating affinities

From the AlphaSeq antibody data of Li et al. 2023 (doi:10.1038/s41467-023-39022-2), copy in the FLAb collection.

The target is the same throughout: PDVDLGDISGINAS, from the HR2 region of SARS-CoV-2 spike.

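Phage display of a naive human antibody library on the peptide gave the parent. These sequences belong to a second round, designed from the earlier measurements on random variants of the parent. Several design methods are mixed in this list. AlphaSeq pools MATa yeast showing the antibodies with MATalpha yeast showing the peptide. After mating in shaken culture at 30 °C for 16 h, diploids were selected and their barcode pairs sequenced. Scores were corrected for input abundance and mapped to Kd with protein pairs of known affinity run in the same pool. Mating was done six times.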

Parent scFv Ab-14: VH joined to VL by a 15-residue (Gly4Ser)3 linker. Changes lie in the light chain CDRs alone.
VH: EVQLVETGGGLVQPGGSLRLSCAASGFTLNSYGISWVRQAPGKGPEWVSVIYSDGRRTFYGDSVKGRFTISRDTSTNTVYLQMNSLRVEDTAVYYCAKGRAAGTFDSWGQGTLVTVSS
VL: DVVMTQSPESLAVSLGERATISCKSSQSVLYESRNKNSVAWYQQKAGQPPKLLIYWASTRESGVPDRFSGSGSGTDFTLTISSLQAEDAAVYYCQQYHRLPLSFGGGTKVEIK

The whole VL of each variant is written out.
Scale: log10 of Kd in nM, estimated from mating counts; low values are strong binders.
Replicates are averaged; those with no signal do not enter the mean.
Where no diploid with the target was found in any replicate, the entry reads "nd": below detection, most likely a poor binder, though not proof of it.
Entries are sorted by rising average, undetected variants last.
A sequence measured in both rounds can read differently, since the two assays cover different ranges.
The authors' rule: three or more of the six replicates give a measured affinity, fewer mean a poor binder.
Of ten entries with the parent sequence, four were seen in most replicates (averages 0.34 to 2.37), three in one and three in none, so single entries are noisy.
Background: pairings of all light chain designs with three empty control strains gave a value in 4% of cases (median 2.64, 5th percentile 1.59). Values in that range, when seen in few replicates, are hard to tell from nonspecific mating.

VL | mean, log10 nM | detected
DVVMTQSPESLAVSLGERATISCKLEQSELYESRNKNSVAWYQQKAGQPPKLLIYNASQRESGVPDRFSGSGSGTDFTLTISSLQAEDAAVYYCQQYHRLPLSFGGGTKVEIK | -0.43 | 6/6
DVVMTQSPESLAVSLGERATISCHISQMWFLESKNKNNVAWYQQKAGQPPKLLIYEESTRGDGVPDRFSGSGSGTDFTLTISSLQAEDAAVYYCQSYFRLPLSFGGGTKVEIK | -0.19 | 6/6
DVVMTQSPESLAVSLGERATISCKLPQSDLYESRNKNSVAWYQQKAGQPPKLLIYEASTRESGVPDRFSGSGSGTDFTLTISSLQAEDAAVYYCQQYHRLPLSFGGGTKVEIK | -0.15 | 6/6
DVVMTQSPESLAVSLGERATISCALSQSELYESRMKNSVAWYQQKAGQPPKLLIYNASTREEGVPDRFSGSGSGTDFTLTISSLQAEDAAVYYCQQYHRLPLSFGGGTKVEIK | 0.08 | 6/6
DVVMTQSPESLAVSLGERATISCHISPMQAMAYEAKNSVAWYQQKAGQPPKLLIYDTETKLNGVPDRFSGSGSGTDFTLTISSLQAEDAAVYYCQQYIRLPLSFGGGTKVEIK | 0.22 | 6/6
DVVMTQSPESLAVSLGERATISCKSSQSILYESRNKPSVAWYQQKAGQPPKLLIYDAYTRESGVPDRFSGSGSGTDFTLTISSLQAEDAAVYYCQQYHRLPLSFGGGTKVEIK | 0.45 | 6/6
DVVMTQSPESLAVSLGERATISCKLSQSVLYESRMKNSVAWYQQKAGQPPKLLIYNASQREQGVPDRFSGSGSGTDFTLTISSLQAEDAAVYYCQQYHRLPLSFGGGTKVEIK | 0.46 | 6/6

The remaining entries, values ahead:

mean, log10 nM | detected | VL
0.54 | 6/6 | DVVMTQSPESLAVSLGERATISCHVNHEYLDYKNYENNIAWYQQKAGQPPKLLIYHVSQRLYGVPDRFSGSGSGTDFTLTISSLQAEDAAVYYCQQYSHLPLSFGGGTKVEIK
0.65 | 6/6 | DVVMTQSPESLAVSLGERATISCKISQSVGYESRNKNGVAWYQQKAGQPPKLLIYQASTRESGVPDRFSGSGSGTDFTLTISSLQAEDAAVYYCQQYHRLPLSFGGGTKVEIK
0.72 | 6/6 | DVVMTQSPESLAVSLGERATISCKLGQMTAIESSNLNSVAWYQQKAGQPPKLLIYQMDTRESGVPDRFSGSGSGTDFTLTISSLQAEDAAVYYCQQYHRLPLSFGGGTKVEIK
1.07 | 6/6 | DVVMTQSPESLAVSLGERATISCKLDQWVEMESRWKNSVAWYQQKAGQPPKLLIYSASQRFSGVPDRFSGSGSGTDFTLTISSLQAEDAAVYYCQQYHRLPLSFGGGTKVEIK
1.50 | 6/6 | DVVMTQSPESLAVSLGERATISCMISNVMNTLTRVGNNVAWYQQKAGQPPKLLIYDLSEREDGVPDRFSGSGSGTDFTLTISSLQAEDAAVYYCQQYFRLPLSFGGGTKVEIK
1.68 | 1/6 | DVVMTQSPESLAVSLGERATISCWMSQSVLYESMNKNSVSWYQQKAGQPPKLLIYWASTRVSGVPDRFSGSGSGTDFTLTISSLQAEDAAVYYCQQYHRLPWSFGGGTKVEIK
nd | 0/6 | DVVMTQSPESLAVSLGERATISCKLLQEVTGHRRNRNSVAWYQQKAGQPPKLLIYHNSTREDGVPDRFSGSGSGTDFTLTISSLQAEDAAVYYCQQYDRLPLSFGGGTKVEIK

A selection of 2 entries from above:

VL | mean, log10 nM | detected
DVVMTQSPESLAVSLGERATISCKLPQSDLYESRNKNSVAWYQQKAGQPPKLLIYEASTRESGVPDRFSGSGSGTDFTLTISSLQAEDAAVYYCQQYHRLPLSFGGGTKVEIK | -0.15 | 6/6
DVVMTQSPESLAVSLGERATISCKLLQEVTGHRRNRNSVAWYQQKAGQPPKLLIYHNSTREDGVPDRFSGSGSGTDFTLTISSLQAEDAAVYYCQQYDRLPLSFGGGTKVEIK | nd | 0/6